The text below walks through data of PMC9719290.

Chains of the proteins cited; added tags and fusions are not shown. Residues count along the entry.
UniProt O14763, 56-182, stated change not applied: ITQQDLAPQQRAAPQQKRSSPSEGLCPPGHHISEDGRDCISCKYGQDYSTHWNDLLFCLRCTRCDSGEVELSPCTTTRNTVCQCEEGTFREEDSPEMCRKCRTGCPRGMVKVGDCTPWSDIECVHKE

This test has as its target monkey TRAIL (monkey). The test can be described thus: SPR. For orientation: In SPR one partner is held on a chip, and binding of the other changes the refractive index at the surface.

With “soluble DR5-Fc (sDR5-Fc) chimeric protein (from UniProt O14763 56-182) (Fc fusion)”, the fold affinity against rat TRAIL was greater than 10 fold.
